Data from patent US20040254352A1, “Lipid-polymer-conjugates” (priority 2001, published 2004).
Values joined by “and” are separate entries in the source; they are usually repeats but may differ in a detail not shown here. Equal entries are not always repeated.

Assay: Particle size and polydispersity of liposomes by (dynamic) light scattering
Type: physicochemical
Conditions: DPPC/cholesterol/conjugate liposomes of Table 1 (Example 21); for Average particle size: dynamic light scattering
Description: The lipid loss during preparation of the liposomes was 25%, determined by comparing the final radioactivity of the preparation with the activity before the extrusion procedure. The suspension of liposomes was stored in a nitrogen atmosphere at 4° C. Liposomes were prepared using the film method, as described in example 20. Instead of egg phosphatidylcholine dipalmitoyl phosphatidylcholine was used. 5 mM HEPES buffer was added to the dry lipid film and shaken during 5 minutes in the presence of glass beads in order to enable complete hydration of the lipid film. The liposomes were sized by extrusion 12 times through 2 stacked PC membranes having pore sizes of 100 and 200 nm. […] See table 1 for the properties of the liposomal preparations.

Substance	Average particle size	Polydispersity index
Poly(2-hydroxyethyl)-L-asparagine DODASuc [Ex. 11]	146.0 ± 2.1 nm and 147.0 ± 1.1 nm and 141.7 ± 2.3 nm and 152.9 ± 3.4 nm and 167.7 ± 0.6 nm and 149.9 ± 2.3 nm and 162.7 ± .024 nm	
Poly(DL-asparagine) DODASuc [Ex. 17]	164.7 ± 4.0 nm	0.116
Poly(DL-glutamine DODASuc [Ex. 16]	156.3 ± 3.2 nm	0.059
Poly(DL-serine) DODASuc [Ex. 13]	162.7 ± 1.6 nm	0.159
poly(HEG-co-glutamic acid)diaminobutane DODASuc; 5% glutamic acid [Ex. 8]	180.7 ± 6.1 nm and 167.7 ± 0.6 nm	
